17 molecules from patent US9040533B2, “Oxime-substituted-quinoxaline-type piperidine compounds as ORL-1 modulators” (priority 2012, dated 2015) can be followed below.

Each structure is given as a SMILES string.

Assay [1] deals with T1, human opioid receptor-like (ORL-1) (Homo sapiens, UniProt P41146). Kind of assay: ORL-1 receptor [35S]GTPγS functional binding assay. It counts as biochemical. The conditions noted are these: for EC50: read-out: GTPγS ORL-1 EC50 [mean ± SEM]. In general terms: GTPγS is a poorly hydrolysed GTP analogue; its binding reports G protein activation.
Another assay deals with human μ-opioid receptors (Homo sapiens, UniProt P35372). Kind of assay: In vitro mu-opioid receptor binding assay ([3H]-diprenorphine displacement). The following applies: read-out: Mu opioid receptor Ki [Average ± Std Deviation].
Another assay concerns the target delta opioid receptor (Homo sapiens, UniProt P41143). Kind of assay: In vitro delta-opioid receptor binding assay ([3H]-Naltrindole displacement). The following applies: read-out: Delta opioid receptor Ki [Average ± Std Deviation].
In assay [2] the target is T1, human opioid receptor-like (ORL-1). Kind of assay: In vitro ORL-1 receptor binding assay ([3H]-nociceptin displacement). The following applies: read-out: ORL-1 Ki [Average ± Std Deviation].
The target in the next assay is kappa opioid receptor (Homo sapiens, UniProt P41145). Kind of assay: In vitro kappa-opioid receptor binding assay ([3H]-U69,593 displacement). The conditions noted are these: read-out: Kappa opioid receptor Ki [Average ± Std Deviation].

As to `CO/N=C(\C(=O)O)c1nc2ccccc2n([C@H]2C[C@H]3CCC[C@@H](C2)N3C2CC3CCCC(C3)C2)c1=O` (stereo partly drawn), the “GTPγS ORL-1 Emax [mean ± SEM]” value in assay [1] is on record as 53.0 ± 2.7%. In assay [1], the EC50 (commonly the concentration at which the effect is half-maximal) turned out to be 12 nM. Further, the Ki at human μ-opioid receptors was 4520 nM; on delta opioid receptor, above 20000 nM; in assay [2], 1.86 nM; at kappa opioid receptor it was 1090 nM.

As to `CO/N=C(\CCC(=O)O)c1nc2ccccc2n([C@H]2C[C@H]3CCC[C@@H](C2)N3C2CC3CC(C)CC(C3)C2)c1=O` (stereo partly drawn), the “GTPγS ORL-1 Emax [mean ± SEM]” value in assay [1] is reported as 33.0 ± 2.1%. Further, the EC50 in assay [1] was 4.73 nM. For the same molecule, the Ki on human μ-opioid receptors is 11.1 nM; on delta opioid receptor, 1610 nM; in assay [2], 2.18 nM; on kappa opioid receptor it was 120 nM.

`CO/N=C(\CCC(=O)O)c1nc2ccccc2n([C@H]2C[C@H]3CCC[C@@H](C2)N3C2CC3CCCCC(C3)C2)c1=O` (stereo partly drawn): the “GTPγS ORL-1 Emax [mean ± SEM]” value in assay [1] stood at 10.67 ± 0.67%. Also, in assay [1], the concentration for a half-maximal effect (EC50) came to 22.6 nM. Besides, the Ki came to 28 nM on human μ-opioid receptors, 3430 nM on delta opioid receptor, 2.24 nM in assay [2] and 139 nM on kappa opioid receptor.

For `O=C(O)/C(=N\OCCO)c1nc2ccccc2n([C@H]2C[C@H]3CCC[C@@H](C2)N3C2CC3CCCC(C3)C2)c1=O` (stereo partly drawn) [Compound 4], the “GTPγS ORL-1 Emax [mean ± SEM]” value in assay [1] is given as 41.3 ± 3.7%. In assay [1], the EC50 was 42.2 nM. Also, the Ki is 3070 nM at human μ-opioid receptors, above 20000 nM on delta opioid receptor, 5.1 nM in assay [2] and 1210 nM at kappa opioid receptor.

Turning to `CCN(CC)C(=O)CO/N=C(\C(=O)O)c1nc2ccccc2n([C@H]2C[C@H]3CCC[C@@H](C2)N3C2CC3CCCC(C3)C2)c1=O` (stereo partly drawn) [Compound 5, [4-((1R,3R,7S)-9-bicyclo[3.3.1]non-3-yl-9-aza-bicyclo[3.3.1]non-3-yl)-3-oxo-3,4-dihydro-quinoxalin-2-yl]-diethylcarbamoylmethoxyimino-acetic acid], the “GTPγS ORL-1 Emax [mean ± SEM]” value in assay [1] is 70.7 ± 2.9%. Moreover, the EC50 in assay [1] is 6.73 nM. The Ki at human μ-opioid receptors amounted to 472 nM; at delta opioid receptor, 11600 nM; in assay [2], 1.22 nM; on kappa opioid receptor, 74.8 nM.

On to `O=C(O)C(=NOCCO)c1nc2ccccc2n([C@H]2C[C@H]3CCC[C@@H](C2)N3C2CC3CCCCC(C3)C2)c1=O` (stereo partly drawn) [Compound 15], for which the “GTPγS ORL-1 Emax [mean ± SEM]” value in assay [1] was found to be 57.33 ± 5.24%. Moreover, the EC50 in assay [1] is 4.32 nM. Also, the Ki on human μ-opioid receptors was determined as 949 nM; on delta opioid receptor, 11700 nM; in assay [2], 3.37 nM; at kappa opioid receptor, 152 nM.

With `CON=C(C(=O)O)c1nc2ccccc2n([C@H]2C[C@H]3CCC[C@@H](C2)N3C2CC3CCCCC(C3)C2)c1=O` (stereo partly drawn) [Compound 17], the “GTPγS ORL-1 Emax [mean ± SEM]” value in assay [1] was 64.5 ± 1.32%. Moreover, the 50% effective concentration (EC50) in assay [1] is 1.2 nM. Further, the Ki on human μ-opioid receptors turned out to be 472 nM; at delta opioid receptor it was 4780 nM; in assay [2], 1.64 nM; at kappa opioid receptor, 92.1 nM.

For the molecule `O=C(O)C(=NOCCO)c1nc2ccccc2n([C@H]2C[C@H]3CC[C@@H](C2)N3C2CC3CCCCC(C3)C2)c1=O` (stereo partly drawn) [Compound 19], in assay [1], the “GTPγS ORL-1 Emax [mean ± SEM]” value is on record as 55.67 ± 4.06%. In assay [1], the EC50 amounted to 18.9 nM. Besides, the Ki was 716 nM at human μ-opioid receptors, above 20000 nM at delta opioid receptor, 2.92 nM in assay [2] and 422 nM at kappa opioid receptor.

As for `CO/N=C(\C(=O)O)c1nc2ccccc2n([C@H]2C[C@H]3CC[C@@H](C2)N3C2CC3CCCCC(C3)C2)c1=O` (stereo partly drawn) [Compound 20, (Z)-2-(4-((1R,3R)-8-(bicyclo[4.3.1]decan-8-yl)-8-azabicyclo[3.2.1]octan-3-yl)-3-oxo-3,4-dihydroquinoxalin-2-yl)-2-(methoxyimino)acetic acid], the “GTPγS ORL-1 Emax [mean ± SEM]” value in assay [1] was found to be 71.7 ± 2.4%. Also, the concentration for a half-maximal effect (EC50) in assay [1] was 7.1 nM. Also, the Ki at human μ-opioid receptors stood at 574 nM; on delta opioid receptor it was 8530 nM; in assay [2] it was 1.57 nM; on kappa opioid receptor, 258 nM.

As for `CC(=NOCC(=O)O)c1nc2ccccc2n(C2CC3CCC(C2)N3C2CC3CCCCC(C3)C2)c1=O` (stereo not drawn) [Compound 22], the “GTPγS ORL-1 Emax [mean ± SEM]” value in assay [1] was 36 ± 1.53%. Moreover, the EC50 in assay [1] is 36.7 nM. For the same molecule, the Ki turned out to be 620 nM at human μ-opioid receptors, 2600 nM on delta opioid receptor, 7.25 nM in assay [2] and 429 nM at kappa opioid receptor.

Regarding `C/C(=N\OCC(=O)O)c1nc2ccccc2n([C@H]2C[C@H]3CCC[C@@H](C2)N3C2CC3CCCCC(C3)C2)c1=O` (stereo partly drawn) [Compound 24, 2-((E)-1-(4-((1R,3R)-9-(bicyclo[4.3.1]decan-8-yl)-9-azabicyclo[3.3.1]nonan-3-yl)-3-oxo-3,4-dihydroquinoxalin-2-yl)ethylideneaminooxy)acetic acid], the “GTPγS ORL-1 Emax [mean ± SEM]” value in assay [1] is on record as 29.7 ± 2.3%. The EC50 in assay [1] stood at 6.4 nM. The Ki at human μ-opioid receptors worked out at 137 nM; on delta opioid receptor, 1590 nM; in assay [2] it was 2.01 nM; on kappa opioid receptor, 80.7 nM.

As for `CC[C@@H]1C[C@H]2CC(N3[C@@H]4CCC[C@H]3CC(n3c(=O)c(/C(CCC(=O)O)=N/OC)nc5ccccc53)C4)C[C@@H](C1)C2` (stereo partly drawn) [Compound 25], the “GTPγS ORL-1 Emax [mean ± SEM]” value in assay [1] came to 42 ± 1.53%. Besides, in assay [1], the EC50 came to 15.7 nM. In addition, the Ki is 22.1 nM on human μ-opioid receptors, 2450 nM at delta opioid receptor, 3.48 nM in assay [2] and 72.1 nM on kappa opioid receptor.

For `CC1CC2CC(C1)CC(N1[C@@H]3CCC[C@H]1C[C@@H](n1c(=O)c(/C(CCC(=O)O)=N/OCCCN(C)C)nc4ccccc41)C3)C2` (stereo partly drawn) [Compound 28], the “GTPγS ORL-1 Emax [mean ± SEM]” value in assay [1] is 54.7 ± 2.0%. Further, the concentration for a half-maximal effect (EC50) in assay [1] worked out at 6.03 nM. Moreover, the Ki was 107 nM at human μ-opioid receptors, 11500 nM at delta opioid receptor, 2.22 nM in assay [2] and 9.3 nM on kappa opioid receptor.

Regarding `CCON=C(C(=O)O)c1nc2ccccc2n([C@H]2C[C@H]3CCC[C@@H](C2)N3C2CC3CCCC(C3)C2)c1=O` (stereo partly drawn) [Compound 30], the “GTPγS ORL-1 Emax [mean ± SEM]” value in assay [1] is on record as 39 ± 4.92%. In addition, the EC50 in assay [1] was 39.8 nM. Further, the Ki was 825 nM at human μ-opioid receptors, above 20000 nM at delta opioid receptor, 3.78 nM in assay [2] and 406 nM on kappa opioid receptor.

Take `CC(C)ON=C(C(=O)O)c1nc2ccccc2n([C@H]2C[C@H]3CCC[C@@H](C2)N3C2CC3CCCC(C3)C2)c1=O` (stereo partly drawn) [Compound 31]: in assay [1], the “GTPγS ORL-1 Emax [mean ± SEM]” value is recorded as 32.25 ± 3.77%. In addition, the 50% effective concentration (EC50) in assay [1] came to 81.4 nM. For the same molecule, the Ki at human μ-opioid receptors turned out to be 358 nM; on delta opioid receptor it was 3640 nM; in assay [2], 4.08 nM; on kappa opioid receptor, 147 nM.

For `CC(C)O/N=C(\C(=O)O)c1nc2ccccc2n([C@H]2C[C@H]3CCC[C@@H](C2)N3C2CC3CCCCC(C3)C2)c1=O` (stereo partly drawn) [Compound 33, 2-(4-((1R,3R)-9-(bicyclo[4.3.1]decan-8-yl)-9-azabicyclo[3.3.1]nonan-3-yl)-3-oxo-3,4-dihydroquinoxalin-2-yl)-2-(isopropoxyimino)acetic acid], the “GTPγS ORL-1 Emax [mean ± SEM]” value in assay [1] is recorded as 63 ± 1%. Moreover, the EC50 in assay [1] stood at 27.7 nM. Besides, the Ki was found to be 134 nM on human μ-opioid receptors, 4270 nM at delta opioid receptor, 2.18 nM in assay [2] and 41.1 nM on kappa opioid receptor.

`CC[C@@H]1C[C@H]2CC(N3[C@@H]4CCC[C@H]3CC(n3c(=O)c(/C(CCC(=O)O)=N/OCCCN(C)C)nc5ccccc53)C4)C[C@@H](C1)C2` (stereo partly drawn) [Compound 35]: in assay [1], the “GTPγS ORL-1 Emax [mean ± SEM]” value was 53.67 ± 3.18%. Moreover, the concentration for a half-maximal effect (EC50) in assay [1] was found to be 40 nM. For the same molecule, the Ki at human μ-opioid receptors was found to be 120 nM; on delta opioid receptor, 11000 nM; in assay [2], 10.8 nM; at kappa opioid receptor, 14.2 nM.
